Legend:
[1] = target: m-CRHR2b (Mus musculus, UniProt Q60748); conditions: m-CRHR2b transfected HEK-293 cells (Brauns et al., 2002); cited from earlier work
[2] = target: T1, CRHR1 (Homo sapiens, UniProt P34998); assay: CRHR1 radioligand binding, [125I]-(Tyr0)-sauvagine; parameters: host or cells: cell membranes
T1 sequence (P34998 24-415): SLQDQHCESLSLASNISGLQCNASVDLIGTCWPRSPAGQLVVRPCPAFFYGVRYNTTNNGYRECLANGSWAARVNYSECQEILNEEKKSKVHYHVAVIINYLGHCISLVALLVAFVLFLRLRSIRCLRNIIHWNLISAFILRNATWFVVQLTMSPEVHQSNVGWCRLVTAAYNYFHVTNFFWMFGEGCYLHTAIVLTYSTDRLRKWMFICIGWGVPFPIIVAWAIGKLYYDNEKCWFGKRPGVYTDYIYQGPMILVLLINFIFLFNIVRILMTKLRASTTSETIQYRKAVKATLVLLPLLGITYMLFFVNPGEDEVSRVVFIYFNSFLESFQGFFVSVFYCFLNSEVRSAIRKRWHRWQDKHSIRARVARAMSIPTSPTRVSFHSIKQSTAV
Protocol: The solution was then homogenized with a Polytron tissue grinder at a setting of 10 and 7×3 s (Brinkmann Instruments, Westbury, N.Y.). […] The supernatant was re-centrifuged at 26,892×g for 25 min at 4° Celsius with the final pellet being re-suspended in assay buffer. […] For competition studies, cell membranes of […] volume were incubated with either 60 pM [^125I]-anti-sauvagine-30 in 50 μl volume for the CRHR2 assay or with)[^125I]-([…]-sauvagine for the CRHR1 assay in the presence of 15 μl of competing ligand for 120 min having a total volume of 150 μl. […] The bound radioactivity was separated by filtration using a Multiscreen Resist manifold (Millipore Corp., Billerica, Mass., U.S.A). The filters were washed three times with ice-cold PBS at pH 7.5 and radioactivity retained on the filters was quantified by its liquid scintillation measured by a TopCount counter (Packard BioScience, Boston, Mass., U.S.A). All experiments were performed in triplicate. Data from individual competition curves were expressed as the percentage of specific [^125I]-anti-sauvagine-30 or)[^125I]-([…]-sauvagine binding (B) within each experiment.

Sequences of proteins named here, by UniProt entry; tags and fusion partners are left off. Residues count along the entry.
UniProt Q60748, 1-431 isoform Q60748-2: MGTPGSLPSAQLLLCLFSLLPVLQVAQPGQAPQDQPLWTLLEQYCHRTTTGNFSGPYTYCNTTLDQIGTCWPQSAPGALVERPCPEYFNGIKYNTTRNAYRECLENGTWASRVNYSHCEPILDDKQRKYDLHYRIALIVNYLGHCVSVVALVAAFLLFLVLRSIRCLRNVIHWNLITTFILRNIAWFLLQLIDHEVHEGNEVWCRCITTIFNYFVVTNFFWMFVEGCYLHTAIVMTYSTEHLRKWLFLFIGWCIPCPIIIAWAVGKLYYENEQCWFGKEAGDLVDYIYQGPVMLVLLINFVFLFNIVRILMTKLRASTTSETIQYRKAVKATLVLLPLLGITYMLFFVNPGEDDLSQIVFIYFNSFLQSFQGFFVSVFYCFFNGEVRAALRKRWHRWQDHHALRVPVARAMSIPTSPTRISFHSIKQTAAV

Ki [2] [µM]	nH [2]	SMILES	Published pA50 [1]
–	–	CC[C@H](C)[C@H](N)C(=O)N[C@H](C(=O)N[C@@H](CC(C)C)C(=O)N[C@@H](CO)C(=O)N[C@@H](CC(C)C)C(=O)N[C@@H](CC(=O)O)C(=O)N[C@H](C(=O)N1CCC[C@H]1C(=O)N[C@H](C(=O)NCC(=O)N[C@@H](CC(C)C)C(=O)N[C@@H](CC(C)C)C(=O)N[C@@H](CCC(N)=O)C(=O)N[C@H](C(=O)N[C@@H](CC(C)C)C(=O)N[C@@H](CC(C)C)C(=O)N[C@@H](CCC(=O)O)C(=O)N[C@@H](CCC(N)=O)C(=O)N[C@@H](C)C(=O)N[C@@H](CCCNC(=N)N)C(=O)N[C@@H](C)C(=O)N[C@@H](CCCNC(=N)N)C(=O)N[C@@H](C)C(=O)N[C@@H](C)C(=O)N[C@@H](CCCNC(=N)N)C(=O)N[C@@H](CCC(=O)O)C(=O)N[C@@H](CCC(N)=O)C(=O)N[C@@H](C)C(=O)N[C@H](C(=O)N[C@H](C(=O)N[C@@H](CC(N)=O)C(=O)N[C@@H](C)C(=O)N[C@@H](CCCNC(=N)N)C(=O)N[C@H](C(=O)N[C@@H](CC(C)C)C(=O)N[C@@H](C)C(=O)N[C@@H](CCCNC(=N)N)C(=O)N[C@H](C(N)=O)C(C)C)[C@@H](C)CC)[C@@H](C)O)[C@@H](C)O)[C@@H](C)CC)[C@@H](C)CC)C(C)C)C(C)C [SEQ ID NO: 115, IVLSLDVPIGLLQILLEQARARAAREQATTNARILARV-NH2, reference compound]	9.12
11	0.79 ± 1.21	CC[C@H](C)[C@H](NC(=O)[C@H](CCC(N)=O)NC(=O)[C@H](C)NC(=O)[C@H](CCSC)NC(=O)[C@H](CC(C)C)NC(=O)[C@H](Cc1c[nH]cn1)NC(=O)[C@H](C)NC(=O)[C@H](CC(N)=O)NC(=O)[C@H](C)NC(=O)[C@H](C)NC(=O)[C@H](C)NC(=O)[C@H](CCC(N)=O)NC(=O)[C@H](C)NC(=O)[C@H](CCCNC(=N)N)NC(=O)[C@H](CC(C)C)NC(=O)[C@H](CC(N)=O)NC(=O)[C@H](CCCCN)NC(=O)[C@H](C)NC(=O)[C@H](CCCCN)NC(=O)[C@H](C)NC(=O)[C@@H](NC(=O)[C@H](CC(N)=O)NC(=O)[C@H](Cc1ccccc1)NC(=O)[C@H](CC(C)C)NC(=O)[C@H](CC(C)C)NC(=O)[C@H](CC(N)=O)NC(=O)[C@H](CCSC)NC(=O)[C@@H](NC(=O)[C@H](CC(N)=O)NC(=O)[C@@H](NC(=O)[C@@H]1CCCN1C(=O)[C@@H](NC(=O)[C@H](CC(=O)O)NC(=O)[C@H](CC(C)C)NC(=O)[C@H](CO)NC(=O)[C@H](CC(C)C)NC(=O)[C@@H](NC(=O)[C@@H](N)Cc1ccccc1)[C@@H](C)O)C(C)C)[C@@H](C)O)[C@@H](C)CC)[C@@H](C)CC)C(N)=O [SEQ ID NO: 116, FTLSLDVPTNIMNLLFNIAKAKNLRAQAAANAHLMAQI-NH2]	–

Reference: patent US20110105397A1, “METHOD FOR TREATING HEART FAILURE WITH STRESSCOPIN-LIKE PEPTIDES” (priority 2009, published 2011)
